# Reference: article PMC9235857 (Molecular Cell, 2022)
# B1: CENP-N (natural protein)
# chain: not shown
# B2: CENP-L (natural protein, human)
# chain: MDSYSAPESTPSASSRPEDYFIGATPLQKRLESVRKQSSFILTPPRRKIPQCSQLQEDVDPQKVAFLLHKQWTLYSLTPLYKFSYSNLKEYSRLLNAFIVAEKQKGLAVEVGEDFNIKVIFSTLLGMKGTQRDPEAFLVQIVSKSQLPSENREGKVLWTGWFCCVFGDSLLETVSEDFTCLPLFLANGAESNTAIIGTWFQKTFDCYFSPLAINAFNLSWMAAMWTACKMDHYVATTEFLWSVPCSPQSLDISFAIHPEDAKALWDSVHKTPGEVTQEEVDLFMDCLYSHFHRHFKIHLSATRLVRVSTSVASAHTDGKIKILCHKYLIGVLAYLTELAIFQIE
# Legend:
# Assay in all cases: cryo-EM structure
# CENP-C^[…] = CENP-C^[…] (human)
# CENP-N = target: B1
# CENP-L = target: B2
Binder,binding result (CENP-C^[…]),binding result (CENP-N),binding result (CENP-L)
B1,binds,,
B2,binds,,
"CENP-M (natural protein, human, UniProt Q9NSP4 1-180, looked up) MSVLRPLDKLPGLNTATILLVGTEDALLQQLADSMLKEDCASELKVHLAKSLPLPSSVNRPRIDLIVFVVNLHSKYSLQNTEESLRHVDASFFLGKVCFLATGAGRESHCSIHRHTVVKLAHTYQSPLLYCDLEVEGFRATMAQRLVRVLQICAGHVPGVSALNLLSLLRSSEGPSLEDL",,binds,binds
